Assay [1] relates to KG-1 acute myeloid leukemia cells. In words: Cell proliferation assay KG-1. To be noted: read-out: IC50 value, KG-1 cells, 72 hours.
For another assay, the target named is LCK (Homo sapiens, UniProt P06239). In words: Binding kinetics assay (surface plasmon resonance) LCK. To be noted: SPR, 22 °C. On the technique in general: In SPR one partner is held on a chip, and binding of the other changes the refractive index at the surface.
Assay [2] concerns REC-1 mantle cell lymphoma cells. In words: Cell proliferation assay REC-1. To be noted: read-out: IC50 value, REC-1 cells, 120 hours.

By UniProt entry, the sequences of proteins in these tests, tags left out.
UniProt P06239, whole entry: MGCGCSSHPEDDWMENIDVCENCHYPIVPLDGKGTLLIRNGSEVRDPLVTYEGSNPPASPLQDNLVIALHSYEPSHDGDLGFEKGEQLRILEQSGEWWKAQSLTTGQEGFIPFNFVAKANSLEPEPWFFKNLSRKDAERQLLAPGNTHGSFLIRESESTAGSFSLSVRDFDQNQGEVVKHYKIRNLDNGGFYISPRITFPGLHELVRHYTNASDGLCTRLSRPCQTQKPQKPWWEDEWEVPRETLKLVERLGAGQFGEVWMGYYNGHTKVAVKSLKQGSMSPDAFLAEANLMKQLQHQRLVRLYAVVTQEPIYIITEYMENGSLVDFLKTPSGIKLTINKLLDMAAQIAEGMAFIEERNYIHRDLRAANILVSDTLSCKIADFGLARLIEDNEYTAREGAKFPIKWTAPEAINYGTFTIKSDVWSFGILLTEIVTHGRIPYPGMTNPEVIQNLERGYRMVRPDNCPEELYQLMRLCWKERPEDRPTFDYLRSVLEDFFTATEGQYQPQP

Molecules are shown by their SMILES. Where only a bound is given, the exact number is not on record here.

By IC50 is commonly meant the point on the concentration scale where inhibition reaches its midpoint. For the compound `CC(C)(C)c1cc(NC(=O)Cc2ccc(-c3nc4n5c(cnc(N)c35)/C=C/CCOCCC(=O)N[C@@H]3CCC[C@@H]4C3)cc2)no1`, the IC50 in assay [1] was under 300 nM.

What is called Kd is the free concentration of one partner at which half of the binding sites on the other are occupied at equilibrium, for simple one-to-one binding. Read a high Kd as weaker binding. For `Nc1ncc2c3c1c(-c1ccc(C(=O)Nc4cc(C(F)(F)F)ccn4)cc1)nn3[C@@H]1CCC[C@H](C1)NC(=O)[C@H]1CN(C/C=C/2)CCN1`, at LCK, the Kd was under 5 nM. The IC50 in assay [2] is under 50 nM.

(Values after patent US20260382605A1, “REVERSIBLE MACROCYCLIC KINASE INHIBITORS” (published 2026).)
